This is an account of results in US9540362B2, “Sphingosine-1-phosphate receptor agonists, methods of preparing the same, and pharmaceutical compositions containing the same as an active agent” (LG LIFE SCIENCES LTD., priority 2013, dated 2017).

Chains of the proteins cited; added tags and fusions are not shown.
UniProt P21453, whole entry: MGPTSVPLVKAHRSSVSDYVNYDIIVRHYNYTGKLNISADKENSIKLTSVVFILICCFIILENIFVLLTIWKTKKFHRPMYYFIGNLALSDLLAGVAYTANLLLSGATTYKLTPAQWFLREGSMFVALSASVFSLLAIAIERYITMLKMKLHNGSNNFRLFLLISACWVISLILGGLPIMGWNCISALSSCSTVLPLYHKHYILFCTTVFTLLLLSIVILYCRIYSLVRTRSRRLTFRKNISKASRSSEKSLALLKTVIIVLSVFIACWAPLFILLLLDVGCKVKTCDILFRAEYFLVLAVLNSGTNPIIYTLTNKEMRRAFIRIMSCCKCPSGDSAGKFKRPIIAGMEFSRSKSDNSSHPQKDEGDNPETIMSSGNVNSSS

The test addresses human sphingosine-1-phosphate 1 receptor (S1P1 receptor) (Homo sapiens, UniProt P21453). Nature of the test: Ca2+ inducing ability using CHO cells overexpressing human S1P1 receptor (Calcium 5 assay kit). Format: cell-based. The settings on record: CHO cells overexpressing human S1P1, calcium RFU; S1P 1 μM = 100%. An excerpt: Evaluation of Ca^2+ inducing ability of test compound using a cell line expressing human sphingosine-1-phosphate
CHO (Chinese hamster ovary) cells which overexpress human sphingosine-1-phosphate 1 receptor (S1P1 receptor) that react with sphingosine-1-phosphate (S1P) are used for a functional test method wherein an increase of calcium indicates a therapeutic efficacy of an agonist compound. CHO-K1 cells, which are used for preparing a stable cell line, show no change in the calcium concentration by S1P, and thus they are good for checking signals from human S1P receptors after transfecting each subtype of the cells with the receptors.
To prepare CHO cells which overexpress human S1P1˜S1P5, human clones for each subtype having HA at the N terminal residue (S1P1: EDG010TN00, S1P2: EDG020TN00, S1P3: EDG030TN00, S1P4: EDG060TN00, S1P5: EDG080TN00) were purchased from the Missouri S&T cDNA Resource Center and co-transfected with G-protein alpha subunit (G-alpha-16) into CHO-K1 cells. After separating cells by FACS (fluorescence-activated cell sorting, LK BioScience, JSAN) using HA-antibodies (MACS, Anti-HA-PE), they were selectively cultured in the medium with 10% FBS (Gibco, USA), 0.5 mg/mL Geneticin (Gibco) and 0.2 mg/mL Hygromycin B F12 (Gibco) to obtain the desired cells.
A calcium measurement kit (Calcium 5 assay kit, Molecular Devices) was used to select an agonist compound. […]

Usually EC50 stands for the concentration giving half of the maximal effect. Turning to `CCCCCCCCc1ccc(CCC(N)(CO)CO)cc1` [FTY-720, Fingolimod, reference compound], the EC50 amounted to 3 nM.
